# Target: Aldo-keto reductase family 1 member B1 (Homo sapiens, UniProt P15121)
structure (smiles),measurement,value
O=C(O)Cc1nn(Cc2nc3cc(C(F)(F)F)ccc3s2)c(=O)c2ccccc12 [ZOPOLRESTAT],IC50,2.1 nM

# Reference: ChEMBL document CHEMBL4354803, “Synthesis and biological activity of structurally diverse phthalazine derivatives: A systematic review” (Bioorg Med Chem, 2019)
